# Ab-14 light chain CDR variants: yeast mating affinities

Source: Li et al. 2023 (doi:10.1038/s41467-023-39022-2), MIT Lincoln Laboratory and A-Alpha Bio; data file from the FLAb repository.

All variants were tested on one target, the spike HR2 peptide PDVDLGDISGINAS (SARS-CoV-2).

Each scFv is VH, three GGGGS repeats, VL, as in the parent Ab-14, and differs from it in the CDRs of the light chain only.
VH: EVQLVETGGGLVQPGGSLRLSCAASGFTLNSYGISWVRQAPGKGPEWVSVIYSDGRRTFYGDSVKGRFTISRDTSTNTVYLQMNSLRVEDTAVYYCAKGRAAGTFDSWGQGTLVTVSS
VL: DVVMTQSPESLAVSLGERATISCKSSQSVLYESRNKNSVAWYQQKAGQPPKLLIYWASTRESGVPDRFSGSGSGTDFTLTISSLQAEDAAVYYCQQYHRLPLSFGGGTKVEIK

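Phage display of a naive human antibody library on the peptide gave the parent. These sequences belong to a second round, designed from the earlier measurements on random variants of the parent. Their group label is 14L_GP_Gibbs (GP: Gaussian process model; Gibbs: Gibbs sampling; a sequence that several methods proposed may carry one label only). In AlphaSeq, yeast of one mating type display the scFv and yeast of the other type display the target. After mating in shaken culture at 30 °C for 16 h, diploids were selected and their barcode pairs sequenced. The ratio of observed to expected reads was calibrated, replicate by replicate, on BCL2-family standards whose Kd was known from biolayer interferometry. There are six technical replicates.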

Positions count from residue 1 of the parent VL; S25L puts L in place of S.
Affinities are written as log10 Kd with Kd in nM; a lower number is a better binder.
"ND" means that the variant was in the library but no mating with the target was seen in that replicate; the authors take this as a sign of poor binding, and no number exists.
The parent sequence was in this pool as ten entries: three were never detected, three once, and four in most replicates, with averages from 0.34 to 2.37.

changes | replicates, log10 nM | control signals
S25L/S26Y/V29E/L30W/N35M/S38N/W56N/T59L | 0.65 / 0.83 / 0.73 / 0.92 / 1.04 / 0.82 | 0 of 18
S25Q/S26Q/V29W/L30D/Y31G/E32Q/W56H/T59K | 1.25 / 1.43 / 2.35 / 1.16 / 2.67 / 1.96 | 2 of 18 (2.82)
S25L/S26R/V29C/L30E/S33D/W56H/T59Q/E61C | 0.48 / 0.34 / 0.53 / 0.06 / 0.44 / 0.41 | 0 of 18
S25L/S28Q/V29A/L30E/W56Q/S62M | 0.07 / -0.26 / -0.14 / -0.14 / -0.28 / 0.04 | 0 of 18
S25L/S26D/S28L/L30D/Y31M/S38A/W56E | -0.17 / -0.29 / 0.02 / -0.40 / 0.04 / -0.02 | 3 of 18 (1.88)
S25L/Q27M/V29D/K36G/W56E/S62K | 0.12 / 0.17 / 0.07 / 0.10 / 0.11 / 0.25 | 1 of 18 (2.48)
S25F/S26Q/V29Q/N35M/W56N/T59K/E61C/S103K | 1.96 / 1.40 / 1.20 / 1.36 / 1.78 / 1.90 | 1 of 18 (2.01)
S25C/Y31Q/W56E/T59Q | 0.04 / -0.16 / -0.25 / -0.26 / -0.05 / -0.23 | 0 of 18
S25L/S26P/V29M/L30E/N35M/W56H | 0.22 / 0.27 / 0.16 / 0.09 / 0.13 / 0.22 | 1 of 18 (2.16)
S25M/K36S/S38A/W56Q/T59Q | 0.02 / -0.05 / -0.33 / -0.12 / -0.19 / 0.10 | 0 of 18
S25L/S26Q/Q27W/E32S/W56N | 0.22 / 0.33 / 0.15 / 0.08 / 0.10 / 0.22 | 2 of 18 (2.57)
S26M/V29Q/L30E/W56E/S62L | -0.17 / -0.04 / 0.06 / 1.00 / -0.37 / 0.22 | 0 of 18
S25L/S28Q/V29H/Y31M/W56N/T59L/E61L/Q96C | 1.05 / 0.64 / 0.16 / 0.08 / 0.66 / 0.51 | 0 of 18
S26E/Q27M/L30Y/E32G/S33E/W56Q | 1.05 / 0.26 / 0.22 / 0.13 / 0.56 / 1.06 | 0 of 18
S25G/S26M/Q27G/V29M/S33Q/W56N/T59Q/E61M | -0.19 / -0.31 / -0.33 / -0.27 / -0.27 / -0.21 | 1 of 18 (2.47)
S25L/S26Q/Q27M/S28Q/Y31M/E32S/W56Q/S58N | 0.69 / 0.41 / 0.49 / 0.26 / 0.31 / 0.65 | 2 of 18 (3.29)
S25L/S26Q/Q27F/V29W/L30W/W56S/T59Q/S62V | 0.13 / 0.02 / -0.04 / 0.21 / -0.11 / 0.35 | 0 of 18
Q27P/V29E/L30P/S33D/K36F/N37Y/W56H/T59Q | 0.74 / 0.61 / 0.72 / 0.58 / 0.69 / 0.56 | 3 of 18 (2.55)
S25V/S28E/V29Q/L30D/E32Q/W56D/T59L | 0.30 / 0.30 / 0.14 / 0.06 / -0.05 / 0.10 | 0 of 18
S25L/Q27M/V29W/L30E/K36S/W56N/S62N/S103A | 0.42 / 0.25 / -0.04 / 0.13 / 0.49 / 0.16 | 2 of 18 (2.83)
K24I/S25V/V29M/Y31G/W56N/S62H | 0.21 / 0.07 / -0.10 / 0.11 / 0.06 / -0.05 | 2 of 18 (2.19)
S25I/Q27G/V29Y/Y31G/E32L/K36W/S38A/W56H/T59Q/S62Q | 0.64 / 0.80 / 0.53 / 0.38 / 1.01 / 0.79 | 1 of 18 (2.47)
S25I/S26Q/V29G/L30Y/S33D/W56S/E61C/S62P | 0.20 / 0.34 / 0.17 / 0.09 / 0.10 / 0.12 | 3 of 18 (2.58)
S25V/S26M/V29Y/Y31G/S33M/K36V/W56N | 0.11 / 0.18 / -0.03 / 0.28 / -0.18 / 0.37 | 1 of 18 (1.04)
S25F/S26Q/S33D/K36L/W56H/A57G/E61S/Q96D | 0.36 / 0.22 / 0.26 / 0.07 / 0.13 / 0.46 | 1 of 18 (3.17)
K24H/S25L/S26Y/V29Q/N35W/W56N/E61L/S62H | 0.87 / 0.72 / 0.79 / 0.61 / 0.81 / 1.14 | 0 of 18
S25V/S26W/Q27M/V29Q/W56N/T59L/E61M | 0.13 / 0.12 / 0.00 / -0.06 / 0.24 / 0.14 | 2 of 18 (3.92)
K24F/S25I/L30E/N35D/W56N/S58N/E61L | 0.46 / 0.82 / 0.56 / 0.56 / 0.65 / 1.03 | 2 of 18 (2.70)
S26Q/L30W/W56N/T59L/E61C | 0.72 / 0.40 / 0.42 / 0.47 / 0.55 / 0.56 | 1 of 18 (2.87)
S25V/S26Y/S28G/L30D/S33D/W56H/T59Q | -0.11 / -0.26 / -0.39 / -0.37 / -0.34 / -0.24 | 1 of 18 (3.60)
S25L/S28Q/V29M/K36H/S38N/W56A/T59Q/S62D | -0.48 / -0.43 / -0.56 / -0.77 / -0.50 / -0.48 | 3 of 18 (3.12)
S25W/V29H/K36W/S38A/W56E/E61P | ND / ND / ND / ND / ND / ND | 0 of 18
S25C/S26D/V29Q/L30D/S38N/W56N/T59Q/S62D | -0.13 / -0.30 / -0.11 / -0.37 / -0.20 / -0.14 | 0 of 18
S25V/S26G/V29F/Y31Q/W56H/T59L | 0.13 / -0.12 / 0.15 / -0.16 / 0.20 / 0.13 | 1 of 18 (4.34)
S25I/S28A/V29Y/S33D/W56Q/S58N/T59Q | -0.06 / 0.11 / -0.11 / -0.18 / -0.16 / 0.13 | 1 of 18 (2.84)

The last 5 entries again:

changes | replicates, log10 nM | control signals
S25L/S28Q/V29M/K36H/S38N/W56A/T59Q/S62D | -0.48 / -0.43 / -0.56 / -0.77 / -0.50 / -0.48 | 3 of 18 (3.12)
S25W/V29H/K36W/S38A/W56E/E61P | ND / ND / ND / ND / ND / ND | 0 of 18
S25C/S26D/V29Q/L30D/S38N/W56N/T59Q/S62D | -0.13 / -0.30 / -0.11 / -0.37 / -0.20 / -0.14 | 0 of 18
S25V/S26G/V29F/Y31Q/W56H/T59L | 0.13 / -0.12 / 0.15 / -0.16 / 0.20 / 0.13 | 1 of 18 (4.34)
S25I/S28A/V29Y/S33D/W56Q/S58N/T59Q | -0.06 / 0.11 / -0.11 / -0.18 / -0.16 / 0.13 | 1 of 18 (2.84)

Background: pairings of all light chain designs with three empty control strains gave a value in 4% of cases (median 2.64, 5th percentile 1.59). Values in that range, when seen in few replicates, are hard to tell from nonspecific mating. The control count says in how many pairings with the empty strains this scFv gave a signal, with their mean in brackets.
The authors' rule: three or more of the six replicates give a measured affinity, fewer mean a poor binder.
Values of this round are not directly comparable with the first-round values of the same sequences.